Measured values taken from US20250367263A9, “Therapeutic Regimens and Methods for Treatment of Cardiovascular Risk Factors using a GLP-1R and GCGR Agonist” (Spitfire Pharma LLC, priority 2022, published 2025).

Amino acid sequences for entries named in this document (tags omitted). Residues count along the entry.
UniProt P47871, 26-477: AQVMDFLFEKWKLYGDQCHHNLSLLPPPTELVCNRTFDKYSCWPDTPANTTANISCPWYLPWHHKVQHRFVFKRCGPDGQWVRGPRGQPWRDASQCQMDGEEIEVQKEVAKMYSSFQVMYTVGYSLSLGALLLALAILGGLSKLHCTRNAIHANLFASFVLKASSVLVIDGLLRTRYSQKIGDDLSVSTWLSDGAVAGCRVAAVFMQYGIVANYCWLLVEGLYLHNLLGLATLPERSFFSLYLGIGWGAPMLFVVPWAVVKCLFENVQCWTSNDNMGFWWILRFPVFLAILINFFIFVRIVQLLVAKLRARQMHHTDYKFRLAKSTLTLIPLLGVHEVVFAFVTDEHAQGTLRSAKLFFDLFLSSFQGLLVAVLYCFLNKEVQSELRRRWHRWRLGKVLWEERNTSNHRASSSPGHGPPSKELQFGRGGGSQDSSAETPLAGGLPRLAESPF

Tests used:
glucagon receptor (GCGR) = glucagon receptor (GCGR) (Homo sapiens, UniProt P47871); experiment: GCGR agonist activity (cellular assay); assay type: cell-based
Excerpt: This disclosure relates to a dual agonist peptide(s) as well as pharmaceutical dosage formulations comprising, and methods for using, the same. The dual agonist peptides have affinity for, and in preferred embodiments about equal affinity for, glucagon-like peptide 1 receptor (GLP-1R) and glucagon receptor (GCGR), as may be determined using a cellular assay. In preferred embodiments, this disclosure provides methods for using pemvidutide (e.g., preferably pharmaceutical dosage formulation comprising SEQ ID NO: 1) that upon administration to a human being prevents and/or treats cardiovascular (CV) disease and/or CV disease-related conditions, symptoms, causes, and/or risks thereof. In some embodiments, the human being is overweight, obese (e.g., a body mass index of at least about 25), and may or may not suffer from type 2 diabetes. In preferred embodiments, the administration of pemvidutide as disclosed herein results in the weight loss and/or a reduction in waistline (“waist circumference”) measurements. In preferred embodiments, the CV disease-related conditions, including but not limited to high cholesterol, triglycerides, LDL and/or VLDL particle concentration and/or diameter, weight loss and/or reduction in waistline measurement, is significant as measured against an untreated or control (e.g., vehicle-treated) individual and/or population. […]

[1] = system: subjects with overweight/obesity (BMI 25-40 kg/m^2); experiment: Phase I clinical trial (NCT0456124), pharmacodynamic endpoints and tolerability, 12 weeks weekly dosing; assay type: in vivo, human
Experimental: To test the lipid-lowering effects of Pemvidutide, an analysis of Phase I clinical trial (NCT0456124) data was carried out. The subjects with overweight/obesity (BMI 25-40 kg/m^2) were randomized at 1 site in Australia (NCT0456124). Subjects were randomized 4:1 pemvidutide:placebo, with placebos pooled. The pemvidutide doses were 1.2 mg, 1.8 mg, and 2.4 mg, administered weekly for twelve (12) weeks, with no dose titration or adjunctive lifestyle intervention (no diet or exercise interventions). […] Lipoprotein and glycoprotein profiling covering 33 lipoprotein related parameters was performed by ^1H-NMR on fasting plasma samples obtained at Day −1 (baseline), Day 43, and Day 84 from the 34 subjects who completed NCT0456124. Lipidomic profiling covering 600 lipid species was performed by ultra-high performance liquid chromatography-mass spectrometry on fasting plasma samples obtained at Day −1 (baseline), Day 43, and Day 84 from the 34 subjects who completed NCT0456124. For the lipid profiling, plasma fractionation was performed either using methanol to extract fatty acyls, bile acids, steroids, and lyso-glycerophospholipids, or using a chloroform/methanol mix to extract glycerolipids, cholesteryl esters, sphingolipids, and glycerophospholipids. Lipid classification followed the classification system proposed by Fahy et al. (J. Lipid Res. 2005; 46:839-861) and the LIPID MAPS initiative (http://www.lipidmaps.org. See FIG. 1.

[2] = 1.2 mg weekly, 12 weeks (n = 7)
[3] = 1.8 mg treatment group, week 12
[4] = 1.8 mg weekly, 12 weeks (n = 9)
[5] = 2.4 mg weekly, 12 weeks (n = 11)

CC[C@H](C)[C@H](NC(=O)[C@H](Cc1ccccc1)NC(=O)[C@H](CCC(=O)O)NC(=O)[C@@H]1CCCCNC(=O)CC[C@H](NC(=O)[C@H](CC(=O)O)NC(=O)[C@H](CC(C)C)NC(=O)[C@H](Cc2ccc(O)cc2)NC(=O)[C@H](CCCCN)NC(=O)[C@H](CO)NC(=O)[C@H](Cc2ccc(O)cc2)NC(=O)[C@H](CC(=O)O)NC(=O)[C@H](CO)NC(=O)[C@@H](NC(=O)[C@H](Cc2ccccc2)NC(=O)[C@@H](NC(=O)CNC(=O)[C@H](CCC(N)=O)NC(=O)C(C)(C)NC(=O)[C@@H](N)Cc2c[nH]cn2)[C@@H](C)O)[C@@H](C)O)C(=O)N[C@@H](CCCCNC(=O)[C@H]2O[C@@H](OCCCCCCCCCCCCCCCCCC(=O)O)[C@H](O)[C@@H](O)[C@@H]2O)C(=O)N[C@@H](C)C(=O)N[C@@H](C)C(=O)N1)C(=O)N[C@@H](CCC(N)=O)C(=O)N[C@@H](Cc1c[nH]c2ccccc12)C(=O)N[C@@H](CC(C)C)C(=O)N[C@@H](CC(C)C)C(=O)N[C@@H](CCC(N)=O)C(=O)N[C@H](C(N)=O)[C@@H](C)O [pemvidutide]
EC50 (glucagon receptor (GCGR)): ~0.04 nM | BMI, % mean, change from baseline [1, 2]: −4.8% | Diastolic BP, % mean, change from baseline [1, 2]: −4.7% | HDL cholesterol, % mean, change from baseline [1, 2]: −16.7% | LDL cholesterol, % mean, change from baseline [1, 2]: −18.4% | Systolic BP, % mean, change from baseline [1, 2]: −10.2% | Total cholesterol, % mean, change from baseline [1, 2]: −20.0% | Triglycerides, % mean, change from baseline [1, 2]: −37.0% | Weight loss, % mean, change from baseline [1, 2]: −4.9% | mean body weight loss ([1]; 1.8 mg dose level, week 12): 10.3% | mean body weight loss after subtraction of placebo ([1]; 1.8 mg dose level, week 12): 8.7% | subjects who achieved at least 10% body weight loss [1, 3]: over half | subjects who lost at least 5% of their body weight [1, 3]: all subjects | Apoprotein B, % mean, change from baseline [1, 4]: −23.4% | BMI, % mean, change from baseline [1, 4]: −10.4% | Diastolic BP, % mean, change from baseline [1, 4]: −7.1% | HDL cholesterol, % mean, change from baseline [1, 4]: −30.3% | LDL cholesterol, % mean, change from baseline [1, 4]: −25.6% | Systolic BP, % mean, change from baseline [1, 4]: −12.5% | Total cholesterol, % mean, change from baseline [1, 4]: −28.0% | Triglycerides, % mean, change from baseline [1, 4]: −37.9% | Weight loss, % mean, change from baseline [1, 4]: −10.3% | Apoprotein B, % mean, change from baseline [1, 5]: −16.8% | Diastolic BP, % mean, change from baseline [1, 5]: −6.0% | HDL cholesterol, % mean, change from baseline [1, 5]: −36.0% | LDL cholesterol, % mean, change from baseline [1, 5]: −23.9% | Systolic BP, % mean, change from baseline [1, 5]: −17.4% | Total cholesterol, % mean, change from baseline [1, 5]: −27.7% | Triglycerides, % mean, change from baseline [1, 5]: −29.2% | Weight loss, % mean, change from baseline [1, 5]: −9.0% | weight loss as compared to placebo ([1]; 12 weeks of weekly administration): significant weight loss | mean weight losses observed in the study ([1]; across dose levels, 12 weeks): up to 10.3% | SAEs or AEs leading to treatment discontinuation ([1]; all dose groups, 12 weeks): no SAEs or AEs leading to treatment discontinuation | severity of AEs ([1]; all dose groups, 12 weeks): mild or moderate | tolerability ([1]; all dose levels (1.2, 1.8, 2.4 mg weekly), without dose titration): safe and well-tolerated
